Among the data in PubChem BioAssay AID493087 (The Scripps Research Institute Molecular Screening Center, 2011) are activation values, retold here.

Chains of the proteins cited; added tags and fusions are not shown.
UniProt P14735, whole entry, looked up: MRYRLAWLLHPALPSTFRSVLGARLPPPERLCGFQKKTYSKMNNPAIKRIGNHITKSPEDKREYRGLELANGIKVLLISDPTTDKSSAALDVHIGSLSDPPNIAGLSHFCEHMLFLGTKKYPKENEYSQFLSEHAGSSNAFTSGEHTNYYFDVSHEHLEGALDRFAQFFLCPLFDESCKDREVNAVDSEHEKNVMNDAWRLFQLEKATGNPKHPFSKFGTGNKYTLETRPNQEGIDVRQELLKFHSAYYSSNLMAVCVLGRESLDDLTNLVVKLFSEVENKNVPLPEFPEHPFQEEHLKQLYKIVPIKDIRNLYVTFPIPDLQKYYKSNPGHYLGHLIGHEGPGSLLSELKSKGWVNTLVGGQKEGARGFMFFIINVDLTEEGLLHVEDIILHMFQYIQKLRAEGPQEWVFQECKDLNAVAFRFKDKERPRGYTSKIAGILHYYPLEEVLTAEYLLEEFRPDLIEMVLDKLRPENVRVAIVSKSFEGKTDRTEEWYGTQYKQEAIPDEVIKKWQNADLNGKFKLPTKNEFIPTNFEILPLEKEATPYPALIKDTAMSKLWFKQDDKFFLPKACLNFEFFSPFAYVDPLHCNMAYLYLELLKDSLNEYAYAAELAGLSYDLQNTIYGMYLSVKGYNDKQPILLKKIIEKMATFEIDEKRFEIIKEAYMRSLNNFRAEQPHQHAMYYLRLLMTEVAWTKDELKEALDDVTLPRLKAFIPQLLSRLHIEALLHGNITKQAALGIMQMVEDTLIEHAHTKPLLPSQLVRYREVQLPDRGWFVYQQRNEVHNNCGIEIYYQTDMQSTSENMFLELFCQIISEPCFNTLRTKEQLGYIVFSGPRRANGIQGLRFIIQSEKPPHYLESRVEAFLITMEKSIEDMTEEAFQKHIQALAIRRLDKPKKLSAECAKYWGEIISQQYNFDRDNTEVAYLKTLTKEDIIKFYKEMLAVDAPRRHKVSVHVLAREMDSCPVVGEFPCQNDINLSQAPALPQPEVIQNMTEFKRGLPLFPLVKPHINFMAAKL

This is a selection; strong and weak results do not stand in their true shares. Activity calls are given as the source filed them.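 How the source made its calls: active means activation above the mean of all tested compounds plus 3 SD, set per screening campaign (cut at about 17% in these data); inactive means the rest.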

The assay deals with Insulin-degrading enzyme (Homo sapiens) (UniProt P14735). Nature of the assay: human IDE activators in live cells, primary screen, fluorescence polarization, HEK cells, FAbeta-B substrate (AID 493087). The settings on record: FAbeta-B cleavage, at 5.96 µM, hits give high values, 0% vehicle, 100% cell-free pure enzyme wells. Background: Polarisation of emitted light reports the rotation of a fluorescent probe.
For `NC(=O)Nc1ccc([As](=O)(O)O)cc1`, the activation was inactive: -1.23%.

Take `CN(C)C(=O)c1cc([N+](=O)[O-])cc2c1-c1c(cc([N+](=O)[O-])cc1[N+](=O)[O-])C2=O`: the activation was inactive: 0.91%.

With `O=[N+]([O-])c1ccc2c(c1)nnn2O`, the activation is inactive: 5.72%.

Regarding `CN(C(=O)Cc1ccc(Cl)c(Cl)c1)[C@H]1CC[C@@]2(CCCO2)C[C@@H]1N1CCCC1`, the activation was inactive: 7.71%.

For `N#CCCN(C(=O)COC(=O)C(O)(c1ccccc1)c1ccccc1)c1ccc(F)cc1`, the activation was inactive: -0.05%.

As to `CN(C(=O)Cc1ccccc1)[C@@H]1CC[C@]2(CCCO2)C[C@H]1N1CCCC1`, the activation was inactive: 3.06%.

Take `CCOP1(=S)c2c(C)nn(CCC#N)c2N=C(c2ccc(F)cc2)N1C` (configuration not stated): the activation is inactive: 4.45%.

With `CS(=O)(=O)c1cc([N+](=O)[O-])c2no[n+]([O-])c2c1`, the activation was inactive: -8.57%.

For `CCOP1(=S)c2c(C)nn(CCC#N)c2N=C(c2ccccc2F)N1C` (configuration not stated), the activation was inactive: -1.76%.

Turning to `O=P(Nc1nccs1)(c1ccccc1)c1nc2ccccc2s1` (configuration not stated), the activation is inactive: -62.9%.

In the case of `O=P(Nc1nccs1)(Oc1ccccc1)Oc1ccccc1`, the activation was inactive: 1.76%.

Regarding `O=C(O)COc1ccc([As](=O)(O)O)cc1[N+](=O)[O-]`, the activation was inactive: 4.53%.

For the molecule `Nc1ccccc1[As](=O)(O)c1ccccc1`, the activation was inactive: 3.88%.

Take `CCCOP(=S)(Nc1nc(N)cc(=O)[nH]1)OCCC`: the activation was inactive: 3.07%.

Turning to `Nc1cccc2c([As](=O)(O)O)cccc12`, the activation was inactive: -0.14%.

As to `Cc1ccc(NCCc2c([N+](=O)[O-])cc([N+](=O)[O-])cc2[N+](=O)[O-])cc1`, the activation is inactive: -0.17%.

In the case of `COc1cc(C2NCCC3(OCCO3)C2(C)C)cc(OC)c1OC` (configuration not stated), the activation is inactive: -1.99%.

Turning to `CCOP(=O)(Nc1cccc2ccccc12)OCC`, the activation was inactive: 0.75%.

For the molecule `COc1cc(C(=O)NCC2(N3CCOCC3)CCCCC2)cc(Cl)c1OC(C)C`, the activation is inactive: 9.27%.

On to `O=[As](O)(O)c1cccnc1`, for which the activation is inactive: -1.79%.

For `CS(=O)(=O)c1ccc(Cl)c(NC(=O)COC(=O)C(O)(c2ccccc2)c2ccccc2)c1`, the activation was inactive: 2.41%.

For the molecule `O=C(OC1CN2CCC1CC2)c1ccc(Cl)cc1` (configuration not stated), the activation was inactive: 5.37%.

In the case of `O=[As](O)(c1cccc(O)c1)c1cccc(O)c1`, the activation was inactive: 2.74%.

Turning to `Cc1cccc(OCC(=O)OC2CN3CCC2CC3)c1` (configuration not stated), the activation was inactive: 4.99%.

Consider `COc1ccccc1CNC(=O)COC(=O)C(O)(c1ccccc1)c1ccccc1`, for which the activation was inactive: -2.1%.

As to `CC1(CBr)Cn2c(nc3ccccc3c2=O)S1` (configuration not stated), the activation was inactive: 6.76%.

Turning to `CN(C(=O)Cc1ccc(Cl)c(Cl)c1)[C@@H]1CCCC[C@H]1N1CCCC1`, the activation is inactive: -0.73%.

Take `CC(C)/C=N\N=C(\N)N[N+](=O)[O-]`: the activation is inactive: -0.41%.

As to `CCOP(=O)(Nc1ccc(C)cn1)OCC`, the activation was inactive: -1.63%.

For the molecule `CCC1=CC2Cc3nc4ccc(Cl)cc4c(N)c3C(C1)C2` (configuration not stated), the activation is inactive: 2.82%.

In the case of `O=P1(Nc2ccccn2)COc2ccccc2OC1`, the activation is inactive: 7.26%.

For the molecule `CCOP(=O)(NC(=NC(C)c1ccccc1)NC(C)c1ccccc1)OCC` (configuration not stated), the activation is inactive: 1.85%.

As for `Clc1n[nH]nc1-c1nn[nH][15n]1`, the activation is inactive: 5.87%.

Take `CC(C)(C)C(=O)NC(Sc1ncccn1)C(Cl)(Cl)Cl` (configuration not stated): the activation was inactive: -2.86%.

As to `O=P1(Nc2ncccn2)COc2ccccc2OC1`, the activation is inactive: 2.23%.

With `NS(=O)(=O)c1cccc(NC(=O)COC(=O)C(O)(c2ccccc2)c2ccccc2)c1`, the activation was inactive: 2.57%.

Take `O=P1(Nc2ccc(Br)cn2)COc2ccccc2OC1`: the activation was inactive: 5.87%.

Take `O=[As](O)(c1cccs1)c1cccs1`: the activation was inactive: 2.35%.

As to `Cc1ccc(OCC(=O)OC2CN3CCC2CC3)cc1` (configuration not stated), the activation was inactive: 2.06%.

On to `Nc1cccc([As](=O)(O)c2ccccc2)c1`, for which the activation is inactive: 4.28%.

As to `Cc1nn(-c2ccccc2)c2c1P(=O)(N1CCOCC1)N(C)C(c1ccccc1)=N2` (configuration not stated), the activation is inactive: 3.58%.

As to `Cc1ccc(C(=O)OC2CN3CCC2CC3)cc1` (configuration not stated), the activation is inactive: 3.56%.

For `CC1CCC(C(C)C)C(OP(=O)(Nc2ccccn2)c2ccccc2)C1` (configuration not stated), the activation is inactive: -2.8%.

On to `O=C(/C=C/c1ccccc1)OC1CN2CCC1CC2` (configuration not stated), for which the activation is inactive: 6.14%.

Turning to `CCCC1OP(=O)(Nc2ccccc2)OCC1CC` (configuration not stated), the activation is inactive: 3.51%.

Take `CN(C)C1(CNC(=O)c2ccc(S(C)(=O)=O)cc2)CCCCC1`: the activation is inactive: 4.97%.

For `CCOC(=O)Nc1cccc([As](=O)(O)O)c1`, the activation is inactive: 4.15%.

Turning to `O=[N+]([O-])c1ccc(Nc2ccc(Oc3ccc([N+](=O)[O-])cc3[N+](=O)[O-])cc2)c([N+](=O)[O-])c1`, the activation was inactive: 1.27%.

For the molecule `Cc1cc(SC(NC=O)C(Cl)(Cl)Cl)ncn1` (configuration not stated), the activation was inactive: -3.83%.

With `O=P(Nc1ccccn1)(c1cccc2ccccc12)c1cccc2ccccc12`, the activation was inactive: 4.2%.

Consider `CC1CCNP(=O)(N(CCCl)CCCl)O1` (configuration not stated), for which the activation was inactive: 1.72%.

Turning to `CCOC(=O)Nc1ccc([As](=O)(O)O)c(O)c1`, the activation is inactive: 1.72%.

`CCCCOc1ccc(C(=O)NCC2(N3CCCCC3)CCCCC2)cc1OC`: the activation was inactive: -1.05%.

For `Cc1cc(SC(NC(=O)c2ccccc2)C(Cl)(Cl)Cl)nc(C(C)C)n1` (configuration not stated), the activation was inactive: -7.46%.

For `CCOC(=O)c1ccc(NC(=O)C(C)(CCl)SC)cc1` (configuration not stated), the activation is inactive: -3.07%.

Turning to `O=C(OC1CN2CCC1CC2)c1cccc([N+](=O)[O-])c1` (configuration not stated), the activation was inactive: 1.93%.

In the case of `CCC(C)N(CC(C)C)C(=S)SC(NC(C)=O)C(Cl)(Cl)Cl` (configuration not stated), the activation is inactive: 0.04%.

Regarding `COP1(=S)c2c(C)nn(CCC#N)c2N=C(c2ccc(F)cc2)N1C` (configuration not stated), the activation was inactive: -1.68%.

In the case of `O=C(COc1ccccc1)OC1CN2CCC1CC2` (configuration not stated), the activation is inactive: -0.22%.

Take `O=C(Nc1ccncc1[N+](=O)[O-])c1ccc([N+](=O)[O-])cc1[N+](=O)[O-]`: the activation is inactive: 5.57%.

For the molecule `COc1ccc(N/C(=N/P(=O)(N2CCOCC2)N2CCOCC2)N2CCOCC2)cc1`, the activation is inactive: -0.61%.

With `O=[N+]([O-])c1cc(Oc2ccc([N+](=O)[O-])cc2C(F)(F)F)cc([N+](=O)[O-])c1`, the activation was inactive: -1.28%.

For `O=C(OC1CN2CCC1CC2)C12CC3CC(CC(C3)C1)C2` (configuration not stated), the activation was inactive: 4.13%.

As for `Cc1cc(=O)[nH]c(N[N+](=O)[O-])n1`, the activation is inactive: 2.62%.

As for `Cc1c2c(nc3ccccc13)SC(C(Cl)Cl)C2` (configuration not stated), the activation was inactive: -0.29%.

Consider `COc1ccc2nc(NP(=O)(c3ccccc3)c3ccccc3)sc2c1`, for which the activation was inactive: 5.91%.

As for `COc1cc(I)ccc1[As](=O)(O)O`, the activation was inactive: -0.59%.

For `O=P1(N(CCCl)CCCl)Nc2ccccc2N1`, the activation was inactive: 2.93%.

Regarding `O=P1(N(CCCl)CCCl)OCCCN1CCCl` (configuration not stated), the activation is inactive: 0.53%.

Take `CC(C)c1ccc(OP(=O)(Nc2ccccn2)Oc2ccccc2F)cc1` (configuration not stated): the activation is inactive: 1.04%.

For the molecule `COC(=O)C1(C)COP(=O)(N2CCCCCC2)OC1` (configuration not stated), the activation was inactive: 0.67%.

`ClCCSc1nnc(-c2cccnc2)o1`: the activation was inactive: 0.88%.

Take `O=C(OC1CN2CCC1CC2)c1cccc2[nH]cnc12` (configuration not stated): the activation is inactive: 3.72%.

In the case of `CCN(CC)C(=S)SC(NC=O)C(Cl)(Cl)Cl` (configuration not stated), the activation is inactive: 0.3%.

Regarding `O=[N+]([O-])c1cc([N+](=O)[O-])c(-c2ccn[nH]2)s1`, the activation is inactive: 2.15%.

Regarding `C[As](=O)(O)c1cccc(C(=O)O)c1`, the activation is inactive: 6.01%.

Consider `O=[As](O)(c1ccc(O)cc1)c1ccccc1O`, for which the activation was inactive: 8%.

With `COc1cc(C(=O)NCC2(N3CCOCC3)CCCCC2)ccc1OCC(C)C`, the activation is inactive: 3.72%.

For `O=[N+]([O-])c1ccc(-c2cc([N+](=O)[O-])c(O)c([N+](=O)[O-])c2)cc1`, the activation is inactive: 7.55%.

In the case of `Cc1ccc2nc3c(c(C)c2c1)CC(C(Cl)Cl)S3` (configuration not stated), the activation was inactive: -4.49%.

As for `Cc1ccc(OP(=O)(Nc2ccc([N+](=O)[O-])cn2)Oc2ccc(C)cc2)cc1`, the activation is inactive: 3.01%.

Regarding `CCN(N=Nc1nonc1N)c1nonc1N`, the activation is inactive: 1.6%.

`Nc1cccc2ccc([As](=O)(O)O)cc12`: the activation is inactive: -3.13%.

In the case of `O=C(O)c1ccccc1[As](=O)(O)O`, the activation is inactive: 1.31%.

Regarding `CC(=O)Nc1ccc([As](=O)(O)O)cc1`, the activation was inactive: -0.93%.

As for `CCCC1OP(N)(=O)OCC1CC` (configuration not stated), the activation is inactive: -3.92%.

On to `O=P(Nc1nc2ccc(Cl)cc2s1)(c1ccccc1)c1ccccc1`, for which the activation is inactive: 2.25%.

Turning to `CCOP(=O)(Nc1ccccc1)OCC`, the activation was inactive: -6.49%.

Take `Cc1cc(SC(NC(=O)c2ccc(F)cc2)C(Cl)(Cl)Cl)ncn1` (configuration not stated): the activation was inactive: -13.6%.

`CN(C(=O)Cc1ccc(Cl)c(Cl)c1)[C@H]1CCCC[C@@H]1N1CCCC1`: the activation was inactive: -0.41%.

Consider `Cc1ccc(NP(=O)(Oc2ccccc2F)Oc2ccccc2F)nc1`, for which the activation is inactive: 3.94%.

For `CC(C)CC(=O)NC(Sc1ccc(Cl)cc1)C(Cl)(Cl)Cl` (configuration not stated), the activation was inactive: -1.83%.

For `Nc1cc(N)c2nonc2c1[N+](=O)[O-]`, the activation is inactive: 2.98%.

In the case of `Oc1ccccc1CNc1ccccn1`, the activation was inactive: 7.5%.

Turning to `O=C(NC(Sc1ccncn1)C(Cl)(Cl)Cl)c1ccccc1` (configuration not stated), the activation is inactive: -1.62%.

As for `NC(=O)c1cc([N+](=O)[O-])cc([N+](=O)[O-])c1N`, the activation is inactive: -3.97%.

As for `CN(C(=O)Cc1ccc(Cl)c(Cl)c1)[C@H]1CCCC[C@H]1N1CCCC1`, the activation was inactive: 5.98%.

On to `Cc1ccc(N/C(=N/P(=O)(N2CCOCC2)N2CCOCC2)N2CCOCC2)cc1`, for which the activation is inactive: -2.25%.

`COc1ccccc1OP(=O)(Nc1ccc(C)cn1)Oc1ccccc1OC`: the activation was inactive: 6.44%.

As for `Clc1ccc(Cl)c(NC2=NCC(CBr)S2)c1` (configuration not stated), the activation was inactive: 6.56%.

On to `CN1CCCC(OC(=O)C(c2ccccc2)c2ccccc2)C1` (configuration not stated), for which the activation was inactive: -1.72%.

Turning to `Nc1ccc([As](=O)(O)c2ccc(N)cc2)cc1`, the activation was inactive: 5.79%.
